Test results from patent US4743541A, “Luminescent substrate preparation and its use in specific binding assays” (priority 1985, dated 1988).
Read-outs that look alike come from different tables or passages of the source.

Biological target: T1, horseradish peroxidase (HRP) (Armoracia rusticana, UniProt P00433)
T1 sequence (P00433 31-353): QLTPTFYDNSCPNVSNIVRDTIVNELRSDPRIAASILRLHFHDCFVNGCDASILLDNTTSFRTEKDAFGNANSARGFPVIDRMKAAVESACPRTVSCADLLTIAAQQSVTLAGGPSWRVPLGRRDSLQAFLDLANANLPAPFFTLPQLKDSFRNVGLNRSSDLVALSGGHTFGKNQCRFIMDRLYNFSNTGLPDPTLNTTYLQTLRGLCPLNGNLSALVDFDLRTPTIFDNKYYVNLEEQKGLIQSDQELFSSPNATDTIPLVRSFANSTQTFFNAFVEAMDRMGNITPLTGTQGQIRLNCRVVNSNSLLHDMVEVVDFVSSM
Conditions: for Uniformity of light emission over time after initiation of the reaction: catalyzed luminol oxidation reaction
Protocol: A standardized test procedure for measuring luminol light output has been established. To 0.5 ml of 50 mM borate buffer, pH 9.4, are added 0.5 ml of 40 mM luminol in 45 mM NaOH, pH 11.0; 0.5 ml of 4 mM hydrogen peroxide in 0.01M phosphate buffered saline (PBS), pH 7.0; 0.4 ml of deionized water; and 0.1 ml of 200 mU/ml horseradish peroxidase (HRP) to yield a final 2.0 ml volume containing; 10 mM luminol; 1 mM H2 O2; 12.5 mM borate buffer, pH 9.4; and 20 mU HRP in an aqueous solution having a final pH of 9.4. The enzyme HRP is added last, the solution mixed and relative intensity readings taken on an Ames Fluorocolorimeter (Miles Labs, Inc., Elkhart, IN) at various time points from 1 minute to 2 hours.

[1] = 5 min after initiation of reaction
[2] = 10 min after initiation of reaction
[3] = 20 min after initiation of reaction
[4] = 30 min after initiation of reaction
[5] = 40 min after initiation of reaction
[6] = 50 min after initiation of reaction
[7] = 60 min after initiation of reaction
[8] = 70 min after initiation of reaction
[9] = 80 min after initiation of reaction
[10] = 90 min after initiation of reaction
[11] = 100 min after initiation of reaction
[12] = 110 min after initiation of reaction
[13] = 120 min after initiation of reaction
[14] = 10 mM luminol, 1 mM H2O2, 20 mU HRP, pH 9.4, Ames Fluorocolorimeter, time point not stated

Row | Compound | Luminescent Intensity Units (10 mM luminol, 1 mM H2O2, 20 mU HRP, pH 9.4, Ames Fluorocolorimeter, time point not stated, listed as Fourth crystallization) | Luminescent Intensity Units [1] | Luminescent Intensity Units [2] | Luminescent Intensity Units [3] | Luminescent Intensity Units [4] | Luminescent Intensity Units [5] | Luminescent Intensity Units [6] | Luminescent Intensity Units [7] | Luminescent Intensity Units [8] | Luminescent Intensity Units [9] | Luminescent Intensity Units [10] | Luminescent Intensity Units [11] | Luminescent Intensity Units [12] | Luminescent Intensity Units [13] | Uniformity of light emission over time after initiation of the reaction (listed as luminol preparation) | Uniformity of light emission over time after initiation of the reaction (listed as luminol subjected to four repetitions of the treatment sequence) | Unit light output compared with commercially available, untreated luminol (relative to untreated commercial luminol, listed as activated luminol preparation) | Luminescent Intensity Units [14] | Uniformity of light emission over time after initiation of the reaction (listed as untreated luminol)
1 | Nc1cccc2c(=O)[nH][nH]c(=O)c12 [Activated Luminol] | 1.046 | 1.02 | 0.95 | 0.95 | 0.96 | 0.97 | 0.98 | 0.98 | 0.98 | 0.98 | 0.97 | 0.97 | 0.96 | 0.96 | does not substantially decrease | substantially uniform unit light intensity from about 5 minutes to about 120 minutes | multiplied by a factor of at least about ten |  | 
2 | Nc1cccc2c(=O)[nH][nH]c(=O)c12 [Commercial Luminol, 5-amino-2,3-dihydro-1,4-phthalazinedione, reference compound] |  | 0.013 | 0.012 | 0.011 | 0.011 | 0.010 | 0.008 | 0.007 | 0.006 | 0.005 | 0.005 | 0.005 | 0.005 | 0.005 |  |  |  | 0.016 | substantial decrease in light emission over time
3 | Nc1cccc2c(=O)[nH][nH]c(=O)c12 [First crystallization] |  |  |  |  |  |  |  |  |  |  |  |  |  |  |  |  |  | 0.029 | 
4 | Nc1cccc2c(=O)[nH][nH]c(=O)c12 [Second crystallization] |  |  |  |  |  |  |  |  |  |  |  |  |  |  |  |  |  | 0.622 | 
5 | Nc1cccc2c(=O)[nH][nH]c(=O)c12 [Third crystallization] |  |  |  |  |  |  |  |  |  |  |  |  |  |  |  |  |  | 1.036 | 
